Earlier results in EP0906335B1, “EBV TYPE B CTL EPITOPES” (THE COUNCIL OF THE QUEENSLAND INSTITUTE OF MEDICAL RESEARCH, priority 1996, dated 2008).

System: HLA
Conditions: Table 4, from the cited reference; cited from earlier work

In the case of RKCCRAKFKQLLQHYR, the “HLA Restriction” value is given as “HLA Cw6”.
